Series [1] is described as follows: Serum stability of peptide vectors. The protocol: Test compounds were dissolved in cell-conditioned tissue culture medium (10% FCS in DMEM) at concentrations varying from 1 to 40 μM. The solutions were incubated at 37° C. and samples were withdrawn at intervals. After filtration, aliquots were analysed by RP-HPLC (using a photodiode array UV detector). Intact vectors were identified by reference to chromatograms obtained with authentic peptides and by DE MALDI-TOF analysis of appropriate peak fractions. […] The latter was chosen preferentially in order to replicate the conditions used for cytotoxicity assays on cell cultures.

A short description of series [2]: Carcinoma cell line panel, SRB-assay. The protocol: (§1) After incubation for 96 h, cytotoxicity was assessed using a standard SRB-assay.
(In general: In SRB staining, fixed cells bind dye roughly in proportion to their protein.)

Series [3] in a line: Carcinoma cell line panel, SRB-assay. The protocol:
as §1
This is another data set of the same source.

Series [4] is described as follows: Carcinoma cell line panel, SRB-assay. The protocol:
as §1
The source holds these as a separate data set.

Series [5] is described as follows: Carcinoma cell line panel, SRB-assay. The protocol:
as §1
The source holds these as a separate data set.

Series [6] can be described thus: Carcinoma cell line panel, SRB-assay. The protocol: as §1
This is another data set of the same source.

Series [7] in a line: Carcinoma cell line panel, SRB-assay. Here is the method:
as §1
The source holds these as a separate data set.

A short description of series [8]: Carcinoma cell line panel, SRB-assay. Here is the method: as §1
This is another data set of the same source.

The nature of series [9]: Carcinoma cell line panel, SRB-assay. Here is the method:
as §1
The source holds these as a separate data set.

A short description of series [10]: Carcinoma cell line panel, SRB-assay. The protocol: as §1
This is another data set of the same source.

A short description of series [11]: Carcinoma cell line panel, SRB-assay. Here is the method:
as §1
The source holds these as a separate data set.

The nature of series [12]: Carcinoma cell line panel, SRB-assay. The protocol: as §1
The source holds these as a separate data set.

Series [13] can be described thus: Carcinoma cell line panel, SRB-assay. The protocol:
as §1
This is another data set of the same source.

Series [14] is described as follows: Carcinoma cell line panel, SRB-assay. The protocol: as §1
The source holds these as a separate data set.

Series [15] in a line: Carcinoma cell line panel, SRB-assay. The protocol: as §1
The source holds these as a separate data set.

Structures are written as SMILES. Where two headings read alike, the source gives them in different places.

What is called half-life is the time needed for the level to fall by half in the phase considered. The low end stands for rapid decline, the high end for slow decline. `CC[C@H](C)[C@H](NC(=O)[C@H](CCCCN)NC(=O)[C@@H](NC(=O)[C@H](CCC(N)=O)NC(=O)[C@@H](N)CCCNC(=N)N)[C@@H](C)CC)C(=O)N[C@@H](Cc1c[nH]c2ccccc12)C(=O)N[C@@H](Cc1ccccc1)C(=O)N[C@@H](CCC(N)=O)C(=O)N[C@@H](CC(N)=O)C(=O)N[C@@H](CCCNC(=N)N)C(=O)N[C@@H](CCCNC(=N)N)C(=O)N[C@@H](CCSC)C(=O)N[C@@H](CCCCN)C(=O)N[C@@H](Cc1c[nH]c2ccccc12)C(=O)N[C@@H](CCCCN)C(=O)N[C@@H](CCCCN)C(=O)O` [H-Arg-Gln-Ile-Lys-Ile-Trp-Phe-Gln-Asn-Arg-Arg-Met-Lys-Trp-Lys-Lys-OH]: the Main metabolism product in series [1] (10% FCS in DMEM, 37° C., in all cases (also human or murine serum)) was 15mer resulting from C-terminal truncation of a Lys residue. The half-life in series [1] (bovine, serum) worked out at 10 min.

What is called IC50 is the point on the concentration scale where inhibition reaches its midpoint. A lower IC50 goes with inhibition by little substance. Consider `CC[C@H](C)[C@H](NC(=O)[C@H](CCCCN)NC(=O)[C@@H](NC(=O)[C@H](CCC(N)=O)NC(=O)[C@@H](N)CCCNC(=N)N)[C@@H](C)CC)C(=O)N[C@@H](Cc1c[nH]c2ccccc12)C(=O)N[C@@H](Cc1ccccc1)C(=O)N[C@@H](CCC(N)=O)C(=O)N[C@@H](CC(N)=O)C(=O)N[C@@H](CCCNC(=N)N)C(=O)N[C@@H](CCCNC(=N)N)C(=O)N[C@@H](CCSC)C(=O)N[C@@H](CCCCN)C(=O)N[C@@H](Cc1c[nH]c2ccccc12)C(=O)N[C@@H](CCCCN)C(=O)N[C@@H](CCCCN)C(=O)O` [Vector], for which the IC50 in series [2], in series [3], in series [4], in series [5], in series [6] and in series [7] was > 25 µM each time. For the same compound, the IC50 in series [8], in series [9], in series [10], in [11], in series [12] and in series [13] was > 25 µM each time. Besides, the IC50 in [14] and in [15] was > 25 µM throughout.
